## scFv variants of Ab-14 (heavy chain) against a SARS-CoV-2 spike peptide

Antigen: PDVDLGDISGINAS, a 14-residue peptide of the SARS-CoV-2 spike HR2 region.

Each scFv is VH, a 15-residue (Gly4Ser)3 linker, VL, as in the parent Ab-14, and differs from it in the CDRs of the heavy chain only.
VH: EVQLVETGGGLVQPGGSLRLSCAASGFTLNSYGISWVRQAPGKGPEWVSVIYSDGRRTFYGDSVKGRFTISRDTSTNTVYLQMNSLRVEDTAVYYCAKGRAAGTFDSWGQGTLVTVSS
VL: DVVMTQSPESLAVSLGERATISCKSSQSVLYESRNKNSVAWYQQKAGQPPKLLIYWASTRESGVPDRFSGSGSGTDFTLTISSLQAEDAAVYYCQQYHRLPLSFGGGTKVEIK

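The starting antibody came from a phage panning campaign against this peptide. Designed CDR sequences, proposed from the first random library and measured here. Their group label is 14H_En_HC (En: ensemble of fine-tuned language models; HC: hill climbing; a sequence that several methods proposed may carry one label only). Affinity was read by AlphaSeq, a pooled yeast mating assay with surface-displayed partners. Binding brings cells together so that they mate, and sequencing counts the barcode pairs among the diploids. A regression on co-assayed BCL2-family reference pairs converts the normalised counts of each replicate to an apparent Kd. The assay was run in six technical replicates.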

Each variant is given by its three heavy chain CDRs, as the data file delimits them; those of the parent are GFTLNSYGIS, VIYSDGRRTFYGDSVK, GRAAGTFDS. Scale: log10 of Kd in nM, estimated from mating counts; low values are strong binders. Replicates are averaged; those with no signal do not enter the mean. "nd" marks a missing value. The strain was present, yet no cells mated with the target were sequenced in that replicate, which points to weak or no binding. Three control strains display no target. For all heavy chain designs, 1% of the pairings with them gave a signal, with a median of 2.08 and one signal in twenty below 0.84, so weak values seen in few replicates may be background. The control count says in how many pairings with the empty strains this scFv gave a signal, with their mean in brackets. Values of this round are not directly comparable with the first-round values of the same sequences. Of ten entries with the parent sequence, four were seen in most replicates (averages 0.34 to 2.37), three in one and three in none, so single entries are noisy. In the paper, a design with two or fewer of six values counts as a poor binder.

| CDR-H1 | CDR-H2 | CDR-H3 | replicates, log10 nM | log10 Kd (nM), mean | signal with controls |
|---|---|---|---|---|---|
| GFDLNEYGIS | VIYADGVRTFYSDKVK | GNVGGTFDI | 0.12 0.10 -0.16 0.64 0.29 -0.22 | 0.13 | 0 of 18 |
| GFDLDEYGIS | VIYADGRRTFYADSVK | GEIAGTFFS | nd 0.55 -0.19 -0.53 -0.55 -0.54 | -0.25 | 0 of 18 |
| GFDLNEYGIS | VIYADGRRTFYADSVK | GTVAGTFIQ | nd 1.04 0.80 -0.27 -0.23 1.04 | 0.47 | 0 of 18 |
| GFDLNEYGIS | VIYADGRRTFYKDSVK | GEAAGTFDM | -0.48 -0.33 -0.20 -0.56 -0.67 -0.35 | -0.43 | 0 of 18 |
| GFSLDEYGIS | VIYADGRRTFYADSVK | GENAGTFLM | 0.63 0.61 0.79 0.19 0.66 0.58 | 0.58 | 0 of 18 |
| GFNLNEYGIS | VIYADGRRTFYADSVK | GNTAGTFDV | -0.40 -0.63 -0.72 -0.87 -0.63 -0.41 | -0.61 | 0 of 18 |
| GFNLDEYGIS | VIYADGQRTFYADSVK | GEVAGTFDV | -0.28 -0.42 -0.38 -0.05 -0.14 -0.05 | -0.22 | 0 of 18 |
| GFDLDEYGIS | VIYADGRRTFYADSVK | GTNAGTFDM | -0.31 -0.95 -0.53 -1.20 -0.55 -0.63 | -0.70 | 0 of 18 |
| GFDLNEYGIS | VIYADGKRTFYADSVK | GEIAGTFDF | 0.03 -0.31 0.74 -0.29 0.10 0.57 | 0.14 | 0 of 18 |
| GFDLNEYGIS | VIYADGRRTFYSDSVK | GEIAGTFDM | -0.27 -0.23 -0.33 -0.55 -0.48 -0.14 | -0.33 | 0 of 18 |
| GFDLNEYGIS | VIYADGQRTFYADSVK | GEAAGSFDQ | -0.23 -0.47 -0.13 0.00 -0.60 0.09 | -0.22 | 0 of 18 |
| GFDLNEYGIS | VIYADGRRTFYSDSVK | GENAGIFDI | nd nd nd nd nd nd | nd | 0 of 18 |
| GFDLNEYGIS | VIYADGRRTFYIDSVK | GENAGTFIM | nd nd nd nd nd nd | nd | 0 of 18 |
| GFNLNEYGIS | VIYADGRRTFYADSVK | GENAGTFDF | -0.56 -0.35 -0.75 -0.75 -0.84 -0.55 | -0.63 | 0 of 18 |
| GFDLNEYGIS | VIYADGRRTMYTDSVK | GANAGTFDQ | 0.31 0.07 0.31 0.15 1.13 0.33 | 0.38 | 2 of 18 (2.36) |
| GFDLDEYGIS | VIYADGKRTFYADSVK | GELAGTFDS | -0.25 -0.44 -0.29 -0.24 -0.32 -0.49 | -0.34 | 0 of 18 |
| GFNLDEYGIS | VIYADGRRTFYQDSVK | GETAGTFDF | 0.36 -0.46 -0.60 -0.85 -0.32 -0.35 | -0.37 | 0 of 18 |
| GFDLNEYGIS | VIYADGFRTFYTDSVK | GEVAGTFDS | -0.88 -0.70 -0.65 -0.85 -0.21 -0.58 | -0.65 | 0 of 18 |
| GFDLNEYGIS | VIYADGRRTFYADSVK | GNAAGTFDL | -0.45 -0.83 -0.28 -0.94 0.25 -0.73 | -0.50 | 0 of 18 |
| GFDLNEYGIS | VIYADGRRTFYLDSVK | GQLAGTFDT | -0.39 -0.38 -0.30 -0.49 -0.49 -0.42 | -0.41 | 0 of 18 |
| GFDLDEYGIS | VIYADGRRTFYADSVK | GGNAGTFDQ | 0.81 0.41 0.40 0.46 0.78 0.92 | 0.63 | 0 of 18 |
| GFDLNEYGIS | VIYADGRRTAYTDSVK | GEFAGTFDG | nd nd nd nd nd nd | nd | 0 of 18 |
| GFDLNEYGIS | VIYADGRRTFYKDSVK | GEAGGTFDV | nd 1.76 nd nd nd nd | 1.76 | 0 of 18 |
| GFDLNEYGIS | VIYADGSRTFYSDSVK | GQNAGTFDA | 0.77 0.81 1.03 2.16 0.88 1.04 | 1.11 | 0 of 18 |
| GFDLNEYGIS | VIYADGKRTQYIDSVK | GEIAGTFDS | 0.31 -0.19 -0.04 0.06 -0.18 -0.26 | -0.05 | 0 of 18 |
| GFDLNEYGIS | VIYADGMRTFYADSVK | GNAAGTFNV | -1.35 -0.17 -1.60 -0.58 -0.59 -1.09 | -0.90 | 0 of 18 |
| GFDLNEYGIS | VIYADGRRTAYIDSVK | GNQAGTFDT | nd nd nd nd nd nd | nd | 0 of 18 |
| GFDLNEYGIS | VIYADGMRTFYADSVK | GQLAGTFDF | -0.96 -0.81 -0.91 -1.28 -1.27 -1.08 | -1.05 | 0 of 18 |
| GFDLDEYGIS | VIYADGRRTFYADSVK | GEAAGTFDV | nd 1.49 1.02 -0.01 -0.38 1.40 | 0.71 | 0 of 18 |
| GFNLDEYGIS | VIYADGMRTFYSDSVK | GEVAGTFDV | -0.50 -0.74 -0.81 -0.74 -0.99 -0.58 | -0.73 | 0 of 18 |
| GFDLNEYGIS | VIYADGRRTFYTDSVK | GTEAGTFDV | -0.39 -0.51 -0.59 -1.07 -0.62 -0.26 | -0.57 | 0 of 18 |
| GFDLNEYGIS | VIYADGRRTAYSDSVK | GEAGGTFDW | 0.57 -0.05 -0.29 0.48 0.14 0.29 | 0.19 | 1 of 18 (2.81) |
| GFDLNEYGIS | VIYADGRRTFYSDSVK | GENAGFFDQ | nd nd nd nd nd nd | nd | 0 of 18 |
| GFDLNEYGIS | VIYADGRRTFYADSVK | GEQAGTFDV | -0.60 -0.15 -0.31 -1.10 -0.46 -0.13 | -0.46 | 0 of 18 |
| GFTLDEYGIS | VIYADGMRTFYTDSVK | GGNAGTFDV | -0.17 -0.39 -0.33 -0.69 -0.46 -0.30 | -0.39 | 0 of 18 |
| GFDLNEYGIS | VIYADGKRTFYADSVK | GSEAGTFDM | -0.46 -0.49 -0.75 -0.82 -0.58 -0.50 | -0.60 | 0 of 18 |
| GFDLNEYGIS | VIYADGRRTQYIDSVK | GEAAGTFDA | -0.29 -0.18 0.18 0.56 -0.05 0.99 | 0.20 | 0 of 18 |
| GFDLNEYGIS | VIYADGRRKYYADSVK | GNTAGTFDV | 0.42 0.31 -0.54 -0.94 0.30 -0.22 | -0.11 | 0 of 18 |
| GFDLNEYGIS | VIYADGLRTFYTDSVK | GEFAGTFDT | -0.42 -0.17 -0.07 -0.64 -0.16 -0.54 | -0.33 | 0 of 18 |
| GFDLNEYGIS | VIYADGRRTFYLDSVK | GEAAGTFDQ | -0.09 -0.07 -0.50 -0.38 -0.29 -0.32 | -0.28 | 0 of 18 |
| GFDLNEYGIS | VIYADGRRTFYTDSFK | GEIAGTFDQ | 0.13 0.07 -0.09 0.00 -0.11 -0.03 | -0.01 | 0 of 18 |
| GFDLNEYGIS | VIYADGVRTFYSDSVK | GNVGGTFDV | -0.65 -1.22 -0.85 -0.69 -1.29 -0.09 | -0.80 | 0 of 18 |
| GFDLNEYGIS | VIYADGRRTFYTDSVK | GNTAGTFDV | -0.25 -0.43 -0.67 -0.74 -0.87 -0.52 | -0.58 | 0 of 18 |
| GFDLNEYGIS | VIYADGRRTFYADSVK | GEVAGTFVE | -0.25 -0.37 -0.43 -0.58 -0.56 -0.35 | -0.42 | 1 of 18 (2.91) |
| GFDLNEYGIS | VIYADGLRTSYADSVK | GQLAGTFDQ | -0.22 -0.12 -0.32 -0.66 -0.24 -0.25 | -0.30 | 0 of 18 |
| GFDLNEYGIS | VIYADGMRTFYTDSVK | GEQAGTFDS | -0.52 -0.57 -0.59 -0.63 -0.71 -0.37 | -0.57 | 0 of 18 |

Excerpt, the final 3 entries:

| CDR-H1 | CDR-H2 | CDR-H3 | replicates, log10 nM | log10 Kd (nM), mean | signal with controls |
|---|---|---|---|---|---|
| GFDLNEYGIS | VIYADGRRTFYADSVK | GEVAGTFVE | -0.25 -0.37 -0.43 -0.58 -0.56 -0.35 | -0.42 | 1 of 18 (2.91) |
| GFDLNEYGIS | VIYADGLRTSYADSVK | GQLAGTFDQ | -0.22 -0.12 -0.32 -0.66 -0.24 -0.25 | -0.30 | 0 of 18 |
| GFDLNEYGIS | VIYADGMRTFYTDSVK | GEQAGTFDS | -0.52 -0.57 -0.59 -0.63 -0.71 -0.37 | -0.57 | 0 of 18 |

The measurements come from Li et al. 2023 (doi:10.1038/s41467-023-39022-2) through the FLAb antibody collection.